In the assay the target is T1, Cbl-B (Homo sapiens, UniProt Q13191).
T1 construct: MSD-Based Assay for Degradation of Cbl-B in THP-1 Cells; endogenous in cells; host or cells: THP-1 (title) / Jurkat (protocol text)
Put plainly: MSD-based assay for degradation of Cbl-B in THP-1 cells. Type of assay: cell-based. The protocol: MSD-Based Assay for Degradation of Cbl-B in THP-1 Cells
Assay plates were then shaken at 600 rpm for 5 minutes, followed by incubation for 24 hours in the 37° C. TC incubator. […] Cell debris was then spun down at maximum speed (about 3200 g) for 30 min and lysates frozen in the −80° C. fridge. Meanwhile, MSD plates (L15XA-3) were coated overnight at 4° C. with 1 ug/mL capture antibody (Anti-Cbl-B antibody, 246C5a and Mouse mAB, ab54362). […] Blocking buffer was 3% Blocker A (MSD, R93BA-4) in TBST. Plates were washed 3× with 150 ul/well of 1×TBST and sample lysates (70 ul/well) then added, followed by shaking for 1 hr at RT, 600 rpm. […] Plates were again washed 3× with 150 ul/well of 1×TBST, followed by addition of Secondary Detection antibody, SULFO-TAG anti-species antibody (Anti Rabbit Antibody (R32AB-5) MSD, R32AB-1) at a final concentration of 1 ug/ml and 25 uL/well, followed by shaking for 1 hr at RT, 600 rpm. Plates were again washed 3× with 150 ul/well of 1×TBST, followed by addition of 1×MSD reading buffer (MSD, R92TC-2), 150 ul/well, diluted from 4× with water.
Compound Dmax were binned into A through D as follows: A indicates >70%, B indicates 50-70%, C indicates 30-50%, D indicates <30%.

Protein sequences, listed by entry. Tags and fused reporters are not part of them.
UniProt Q13191, whole entry: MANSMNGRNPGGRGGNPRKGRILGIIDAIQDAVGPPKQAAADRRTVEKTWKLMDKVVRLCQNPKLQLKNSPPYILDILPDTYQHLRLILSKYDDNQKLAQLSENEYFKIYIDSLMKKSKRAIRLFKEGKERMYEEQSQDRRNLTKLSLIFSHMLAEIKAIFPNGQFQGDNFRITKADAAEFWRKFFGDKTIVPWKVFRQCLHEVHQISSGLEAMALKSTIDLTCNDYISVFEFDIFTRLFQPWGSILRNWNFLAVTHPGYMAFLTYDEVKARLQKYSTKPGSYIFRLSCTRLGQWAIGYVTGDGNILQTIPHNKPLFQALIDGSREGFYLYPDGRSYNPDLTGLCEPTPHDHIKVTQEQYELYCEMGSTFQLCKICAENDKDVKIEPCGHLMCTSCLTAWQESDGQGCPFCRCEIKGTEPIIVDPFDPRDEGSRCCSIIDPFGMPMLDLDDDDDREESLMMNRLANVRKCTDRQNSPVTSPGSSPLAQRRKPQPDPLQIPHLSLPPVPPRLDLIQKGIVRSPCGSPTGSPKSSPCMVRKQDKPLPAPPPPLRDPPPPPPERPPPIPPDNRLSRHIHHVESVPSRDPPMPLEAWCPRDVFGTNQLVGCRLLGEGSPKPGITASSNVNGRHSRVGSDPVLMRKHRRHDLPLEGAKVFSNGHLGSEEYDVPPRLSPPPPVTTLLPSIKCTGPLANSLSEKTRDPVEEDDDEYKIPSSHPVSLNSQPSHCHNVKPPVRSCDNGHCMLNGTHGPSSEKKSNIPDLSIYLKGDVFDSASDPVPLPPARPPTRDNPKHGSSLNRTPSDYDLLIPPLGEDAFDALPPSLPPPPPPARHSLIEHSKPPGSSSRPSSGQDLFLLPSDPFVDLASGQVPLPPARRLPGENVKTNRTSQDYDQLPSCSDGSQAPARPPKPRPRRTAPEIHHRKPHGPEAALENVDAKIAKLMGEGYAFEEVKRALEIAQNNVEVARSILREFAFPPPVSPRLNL

[1] abbreviates: Cbl-B degradation, Jurkat cells seeded (heading: THP-1 cells), 24 hours incubation, MSD readout, read-out: Dmax.

Where two headings read alike, the source gives them in different places.

The term Dmax denotes the greatest extent of degradation seen. Molecule `Cn1cnnc1[C@@H](c1cccc(-n2cc3c(C(F)(F)F)cc(CN4CCC[C@H](OCc5ccc(CN6CCN(c7ccc8c(c7)CN([C@@H]7CCC(=O)NC7=O)C8=O)CC6)cc5)C4)cn3c2=O)c1)C1CCC1` (single isomer, unassigned) [Compound 81] yielded a Dmax (THP-1) below 30%.

As for `CN(CCO[C@@H]1CCCN(Cc2cc(C(F)(F)F)c3cn(-c4cccc([C@H](c5nncn5C)C5CCC5)c4)c(=O)n3c2)C1)C(=O)c1ccc(N2CCN(c3ccc4c(c3)CN([C@@H]3CCC(=O)NC3=O)C4=O)CC2)cc1` (single isomer, unassigned) [Compound 103], the Dmax (THP-1) lay in the range of 50 to 70%. Same read-out and setting: the same measure for `CN(CCO[C@H]1CCCN(Cc2cc(C(F)(F)F)c3cn(-c4cccc([C@H](c5nncn5C)C5CCC5)c4)c(=O)n3c2)C1)C(=O)c1ccc(N2CCN(c3ccc4c(c3)CN([C@@H]3CCC(=O)NC3=O)C4=O)CC2)cc1` (single isomer, unassigned) [Compound 105]: above 70%. The molecule `Cn1cnnc1[C@@H](c1cccc(-n2cc3c(C(F)(F)F)cc(CN4CCC(CCN5CCC(CN6CCN(c7ccc8c(c7)CN([C@@H]7CCC(=O)NC7=O)C8=O)CC6)CC5)CC4)cn3c2=O)c1)C1CCC1` (single isomer, unassigned) [Compound 109] yielded a maximal degradation (Dmax) (THP-1) of 50 to 70%. With `CN(CCN(C)C(=O)c1ccc(N2CCN(c3ccc4c(c3)CN([C@@H]3CCC(=O)NC3=O)C4=O)CC2)cc1)Cc1cc(C(F)(F)F)c2cn(-c3cccc([C@H](c4nncn4C)C4CCC4)c3)c(=O)n2c1` (single isomer, unassigned) [Compound 139], the Dmax (THP-1) was below 30%. Take `CN(CCN(C)C(=O)c1ccc(N2CCN(c3ccc4c(c3)CN([C@H]3CCC(=O)NC3=O)C4=O)CC2)cc1)Cc1cc(C(F)(F)F)c2cn(-c3cccc([C@H](c4nncn4C)C4CCC4)c3)c(=O)n2c1` (single isomer, unassigned) [Compound 140]: the maximal degradation (Dmax) under setting [1] lay within 30 to 50%. On to `Cn1cnnc1[C@@H](c1cccc(-n2cc3c(C(F)(F)F)cc(CN4CCC[C@H](OCc5ccc(CC6CCN(c7ccc8c(c7)CN([C@@H]7CCC(=O)NC7=O)C8=O)CC6)cc5)C4)cn3c2=O)c1)C1CCC1` (single isomer, unassigned) [Compound 187], for which, for the setting “THP-1”, the Dmax is below 30%. With `Cn1cnnc1[C@@H](c1cccc(-n2cc3c(C(F)(F)F)cc(CN4CCC[C@H](OCc5ccc(CC6CCN(c7ccc8c(c7)CN([C@H]7CCC(=O)NC7=O)C8=O)CC6)cc5)C4)cn3c2=O)c1)C1CCC1` (single isomer, unassigned) [Compound 188], under setting [1], the Dmax was in the range of 30 to 50%. Still for that read-out and setting: the same measure for `Cn1cnnc1[C@@H](c1cccc(-n2cc3c(C(F)(F)F)cc(CN4CCC[C@@H](OCc5ccc(CC6CCN(c7ccc8c(c7)CN([C@H]7CCC(=O)NC7=O)C8=O)CC6)cc5)C4)cn3c2=O)c1)C1CCC1` (single isomer, unassigned) [Compound 192]: 30 to 50%; for `Cn1cnnc1[C@@H](c1cccc(-n2cc3c(C(F)(F)F)cc(CN4CCC[C@H](OCc5ccc(CN6CCN(c7ccc8c(c7)CN([C@H]7CCC(=O)NC7=O)C8=O)CC6)cc5)C4)cn3c2=O)c1)C1CCC1` [Compound 82]: 30 to 50%.

As for `Cn1cnnc1[C@@H](c1cccc(-n2cc3c(C(F)(F)F)cc(CN4CCC[C@@H](OCc5ccc(CN6CCN(c7ccc8c(c7)CN(C7CCC(=O)NC7=O)C8=O)CC6)cc5)C4)cn3c2=O)c1)C1CCC1` (stereo partly shown) [Compound 95], under “THP-1”, the Dmax was in the range of 50 to 70%. In the case of `Cn1cnnc1[C@@H](c1cccc(-n2cc3c(C(F)(F)F)cc(CN4CCC(N5CCC(CN6CCN(c7ccc8c(c7)CN([C@H]7CCC(=O)NC7=O)C8=O)CC6)CC5)CC4)cn3c2=O)c1)C1CCC1` [Compound 136], the Dmax under setting [1] is 30 to 50%. Still for that read-out and setting: the same measure for `Cn1cnnc1CC1(c2cccc(-n3cc4c(C(F)(F)F)cc(CN5CCN(CCc6ccc(C7CCN(c8ccc9c(c8)CN([C@H]8CCC(=O)NC8=O)C9=O)CC7)cc6)CC5)cn4c3=O)c2)COC1` [Compound 230]: above 70%.

These data come from US20250340552A1, “COMPOUNDS, COMPOSITIONS AND METHODS OF TREATING DISORDERS” (HOTSPOT THERAPEUTICS, INC., priority 2022, published 2025).
